The text below walks through data of PubChem BioAssay AID1645860 (Buhrlage Lab, Dana-Farber Cancer Institute and Novartis …, 2021).

Sequences of proteins named here, by UniProt entry; tags and fusion partners are left off.
UniProt Q70CQ3, whole entry: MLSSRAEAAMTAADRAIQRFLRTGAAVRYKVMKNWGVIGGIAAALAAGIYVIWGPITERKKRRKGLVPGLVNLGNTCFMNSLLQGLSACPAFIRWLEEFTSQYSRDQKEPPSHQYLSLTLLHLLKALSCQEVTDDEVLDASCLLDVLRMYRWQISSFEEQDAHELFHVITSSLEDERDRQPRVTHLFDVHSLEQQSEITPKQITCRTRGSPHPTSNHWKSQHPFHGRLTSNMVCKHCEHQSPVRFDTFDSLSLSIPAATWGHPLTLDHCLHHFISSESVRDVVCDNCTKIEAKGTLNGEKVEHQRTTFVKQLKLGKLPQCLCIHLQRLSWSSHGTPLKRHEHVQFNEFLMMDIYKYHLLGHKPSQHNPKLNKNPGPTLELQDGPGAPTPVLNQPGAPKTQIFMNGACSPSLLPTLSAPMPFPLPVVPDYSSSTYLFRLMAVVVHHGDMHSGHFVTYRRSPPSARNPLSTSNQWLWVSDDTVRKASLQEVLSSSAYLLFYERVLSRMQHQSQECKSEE

The inhibition is the relative decrease from the control value, in per cent.

The entries are a selection whose mix differs from that of the whole data set. Calls of active or inactive are those of the source. No stated cut-off is given here; in the data, active means inhibition above about 30%; inactive means the rest.

The assay concerns the target Ubiquitin carboxyl-terminal hydrolase 30 (Homo sapiens) (UniProt Q70CQ3). Briefly: inhibitors of human USP30 deubiquitinase (AID 1645860). To be noted: purified USP30, Ub-rhodamine cleavage fluorescence; at 25 µM; stronger effect = higher value.
For the molecule `O=C(NCC1(N2CCCCC2)CCCCC1)c1ccc(F)cc1`, the inhibition is inactive: -170%.
The result for `CC1CN(CCc2ccccc2)CCC1=O` (stereo not drawn) reads inactive: 11.9%.
The result for `O=C(NCC1(N2CCCCC2)CCCCC1)c1ccc2ncsc2c1` reads inactive: -22.6%; that for `Cc1ccccc1C(=O)NCC1(N2CCOCC2)CCCCC1`, inactive: -1.84%; that for `Cc1cc(C(=O)NCC2(N3CCOCC3)CCCCC2)c2ccccc2n1`, inactive: 3.16%.
Then `O=C(NCC1(N2CCOCC2)CCCCC1)c1ccccc1Cl`, with inactive: -7.14%; and `N#Cc1ccc(C(=O)NCC2(N3CCCCC3)CCCCC2)cc1`, with inactive: -15.2%; and `CN(C)c1ccc(C(=O)NCC2(N3CCCCC3)CCCCC2)cc1`, with inactive: 0.0678%.
